In ChEMBL document CHEMBL1136574, “Organic phenyl arsonic acid compounds with potent antileukemic activity” (Bioorg Med Chem Lett, 2003) one finds IC50 data, which are given here for four compounds.

The term IC50 denotes the concentration needed to halve the response being measured. Low values mean inhibition by little substance, high ones a need for much substance.

One assay concerns NALM-6. In words: Antileukemic activity against human leukemia NALM-6 (B-lineage ALL) cell line. The assay is classed as functional, cell-based. The gist of the method: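 Cells treated with compounds in 96-well plates, incubated 48 h at 37 °C; cytotoxicity read by MTT assay; IC50 values calculated by curve fitting.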
The subject of a further assay is MOLT-3. In words: Antileukemic activity against human leukemia MOLT-3(T-lineage ALL) cell line.

As to `O=[As](O)(O)c1ccc(Nc2[nH]cnc3ncnc2-3)cc1`, the concentration for half-maximal inhibition (IC50) in the assay on NALM-6 and in the assay with MOLT-3 was greater than 100 µM in each case. In the case of `Nc1ccccc1[As](=O)(O)O`, in the assay with NALM-6, the half-maximal inhibitory concentration (IC50) was greater than 100 µM. In the case of `O=[As](O)(O)c1ccccc1Nc1[nH]cnc2ncnc1-2`, the IC50 in the assay on NALM-6 and in the assay on MOLT-3 was greater than 100 µM in each case. As to `Nc1ccc(/N=N/c2ccc([As](=O)(O)O)cc2)cc1`, the half-maximal inhibitory concentration (IC50) with NALM-6 is greater than 100 µM.
